± gives the expanded uncertainty stated by the source.
Assay: Henry's Law constant (molality scale); of the first substance listed, at infinite dilution; xn = mol fraction of the nth substance listed
Conditions: Liquid, Chromatography, x1 = 0

SMILES: CCl [chloromethane] + O
- Henry's Law constant (274.15 K): 705 ± 210 kPa·kg/mol
- Henry's Law constant (313.15 K): 1720 ± 520 kPa·kg/mol
- Henry's Law constant (326.15 K): 2670 ± 800 kPa·kg/mol
